Amino acid sequences for entries named in this document (tags omitted). Residues count along the entry.
UniProt P27487, 39-766: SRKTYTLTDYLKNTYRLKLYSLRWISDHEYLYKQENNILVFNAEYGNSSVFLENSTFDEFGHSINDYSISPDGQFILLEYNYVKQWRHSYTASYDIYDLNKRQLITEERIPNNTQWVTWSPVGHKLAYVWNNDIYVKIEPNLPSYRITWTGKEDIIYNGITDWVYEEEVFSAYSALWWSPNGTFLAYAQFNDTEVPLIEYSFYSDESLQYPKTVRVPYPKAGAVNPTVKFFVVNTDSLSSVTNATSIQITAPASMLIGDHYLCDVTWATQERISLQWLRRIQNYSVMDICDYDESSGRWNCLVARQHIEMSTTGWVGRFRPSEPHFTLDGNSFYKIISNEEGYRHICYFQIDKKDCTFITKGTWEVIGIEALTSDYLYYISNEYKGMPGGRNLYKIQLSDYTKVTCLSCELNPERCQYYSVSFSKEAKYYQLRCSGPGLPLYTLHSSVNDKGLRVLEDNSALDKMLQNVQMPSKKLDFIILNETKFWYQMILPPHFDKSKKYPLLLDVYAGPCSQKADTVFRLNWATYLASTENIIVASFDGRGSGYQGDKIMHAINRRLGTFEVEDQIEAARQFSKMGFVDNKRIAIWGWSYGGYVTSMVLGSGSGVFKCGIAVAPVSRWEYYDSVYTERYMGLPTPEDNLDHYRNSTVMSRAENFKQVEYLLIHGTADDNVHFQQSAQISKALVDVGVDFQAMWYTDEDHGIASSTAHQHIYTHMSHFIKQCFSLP

According to patent publication US20070072830A1, “Methods for treating diabetes” (Point Therapeutics, Inc., priority 2004, published 2007):

Biological target: T1, soluble recombinant human DPP-IV (Homo sapiens, UniProt P27487)
T1 construct: immunoglobulin kappa light chain secretion signal (pSecTag2-B) (N, cleaved yes); made in house; host or cells: 293T cells, transient transfection; culture supernatant used unpurified
Test: In vitro inhibition of recombinant soluble DPP-IV by amino boronic dipeptides
Format: biochemical
Conditions: assayed at 3 minutes, 78 minutes and 16 hours after addition of Ala-Pro-AFC
Source text: Production of soluble recombinant human DPP-IV. Based on information on the N-terminus of serum DPP-IV (15), a truncated DPP-IV was engineered in which a signal/leader sequence was joined to the residue in DPP-IV corresponding to the N-terminus of serum DPP-IV to allow secretion. The cDNA encoding the desired truncated human DPP-IV dimer enzyme was engineered into the mammalian secretion vector pSecTag2 (Cat# V900-20, InVitrogen Corporation). The vector, available in A, B or C versions, representing three possible phases for gene fusion, contained an immunoglobulin-kappa light chain secretion signal followed by a selection of restriction sites for gene insertion. […]
In vitro assay of enzymatic activity of recombinant soluble DPP-IV and inhibition by amino boronic dipeptides. […] The reaction mixture was incubated at room temperature, and production of the fluorescent AFC product was measured in a fluorometer (excitation, 400 nm; emission 505 nm), either by continuous monitoring or after termination with a one to one-tenth volume of 1-M sodium acetate, pH 4.5. Fluorometric reading were made with a […] Spectra Max GeminiXS capable of reading 96-well microtiter plates. […]

SMILES: CC(C)[C@H](N)C(=O)N1CCC[C@H]1B(O)O [Val-boroPro]
- Persistence / reversibility of DPP-IV inhibition: sustained DPP-IV inhibition
